Among the data in patent US4619823A, “Radioactive iodine labeled metaraminol and diagnostic agent containing platelets labeled therewith” (Nihon Medi-Physics Co., Ltd., priority 1983, dated 1986) are activity values, retold here.

The experiment relates to platelets. Kind of experiment: Take up rate of radioiodine-labeled metaraminol into platelets in coexistence with a medical compound. The conditions noted are these: Platelet, read-out: Take up rate of ^125 I-labeled metaraminol into platelets.

With `COC(=O)[C@H]1[C@H]2C[C@@H]3c4[nH]c5cc(OC)ccc5c4CCN3C[C@H]2C[C@@H](OC(=O)c2cc(OC)c(OC)c(OC)c2)[C@@H]1OC` [Reserpine], the activity at 0.1 µM amounted to 47.3 ± 6.1%.

As for `CC1OC(OC2CC(O)C3(CO)C4C(O)CC5(C)C(C6=CC(=O)OC6)CCC5(O)C4CCC3(O)C2)C(O)C(O)C1O` (centres unmarked) [Quabain], the activity at 10 µM was 58.7 ± 10.2%.
